Data published in ChEMBL document CHEMBL4616678, “Design, Synthesis, and Physicochemical and Pharmacological Profiling of 7-Hydroxy-5-oxopyrazolo[4,3-b]pyridine-6-carboxamide Derivatives with Antiosteoarthritic Activity In Vivo” (J Med Chem, 2020).

Species on record: Homo sapiens
Experiment: Selectivity index, ratio of Ki for recombinant human CB1R expressed in HEK293 cell membranes to Ki for recombinant human CB2R expressed in HEK293 cell membranes
Format: cell-based

Row | SMILES | Ratio Ki
1 | CN1N=CC2C1C(O)=C(C(=O)NC13CC4CC(CC(O)(C4)C1)C3)C(=O)N2CCCCF (configuration not stated) | 8
2 | CCCCn1c(=O)c(C(=O)NC23CC4CC(CC(O)(C4)C2)C3)c(O)c2nn(C)cc21 | > 94
3 | CCCCCn1c(=O)c(C(=O)NC23CC4CC(CC(O)(C4)C2)C3)c(O)c2nn(CCO)cc21 | 9
4 | Cn1cc2c(n1)c(O)c(C(=O)NC13CC4CC(CC(O)(C4)C1)C3)c(=O)n2CCCCF | > 161
5 | CCCCN1C(=O)C(C(=O)NC23CC4CC(CC(C4)C2)C3)=C(O)C2C1C=NN2C (configuration not stated) | 38
6 | CN1N=CC2C1C(O)=C(C(=O)NC13CC4CC(CC(C4)C1)C3)C(=O)N2CCCCF (configuration not stated) | 28
7 | CC(=O)OCCCCn1c(=O)c(C(=O)NC23CC4CC(CC(C4)C2)C3)c(O)c2nn(C)cc21 | > 57
8 | CCCCn1c(=O)c(C(=O)NC23CC4CC(CC(C4)C2)C3)c(O)c2nn(CCO)cc21 | > 54
9 | CCCCN1C(=O)C(C(=O)NC23CC4CC(CC(O)(C4)C2)C3)=C(O)C2C1C=NN2C (configuration not stated) | 4
10 | CCCCCn1c(=O)c(C(=O)NC23CC4CC(CC(C4)C2)C3)c(O)c2nn(CCO)cc21 | 22
11 | Cn1cc2c(n1)c(O)c(C(=O)NC13CC4CC(CC(C4)C1)C3)c(=O)n2CCCCF | 253
12 | Cn1cc2c(n1)c(O)c(C(=O)NC13CC4CC(CC(C4)C1)C3)c(=O)n2CCCCO | > 70
